The text below walks through data of patent US9233086B2 (THE REGENTS OF THE UNIVERSITY OF MICHIGAN, priority 2010, dated 2016).

Usually Ki stands for a measure of affinity in units of concentration, obtained from inhibition or displacement. The term IC50 denotes the concentration that inhibits the measured activity by half.

The target in the first assay is WDR5 (Homo sapiens (Human), UniProt P61964). The assay is described as follows: FP based competitive binding assay to WDR5. The settings on record: 4 nM WDR5Δ23, 0.6 nM 10mer-Thr-FAM tracer; Ki calculated by equation of ref. 31; read-out: Ki ± SD. As to the method:
Another aspect of the invention is development of a Fluorescent Polarization (FP) based competitive binding assay. […] Next, the millipolarization (mP) values were measured at different time points in order to determine equilibrium duration and stability.
Accordingly, the optimal protein concentrations for the competitive assay was investigated.
All the FP based experiments were performed in MICROFLUOR® 2 Black, “U” Bottom, 96-well Microtiter Plates (ThermoSci.) and FP was measured as mP units in a microplate reader (Tecan Ultra) with excitation at 485 nm and emission at 530 nm. The Kd of the tracers and the IC50 value of the inhibitors were calculated using GraphPad Prism 4 software.
The binding affinities of the synthetic peptides shown in the study were measured using this competitive binding assay. A pre-incubated complex solution of WDR5Δ23 and the tracer in 120 μl assay buffer were added to dilutions of the test compound in 5 μl DMSO, giving final concentrations of WDR5Δ23 and the tracer of 4 nM and 0.6 nM, respectively. […] The plates were incubated with shaking at room temperature. The mP values were measured after five hours of incubation and Ki values were calculated using the equation described previously(31).
On to `C[C@H](N)C(=O)N[C@@H](CCCNC(=N)N)C(=O)N[C@H](C(=O)N[C@@H](CCCCN(C)C)C(=O)N[C@@H](CCC(N)=O)C(=O)N[C@H](C(=O)N[C@@H](C)C(=O)N[C@@H](CCCNC(=N)N)C(=O)N[C@@H](CCCCN)C(=O)N[C@@H](CO)C(N)=O)[C@@H](C)O)[C@@H](C)O` [H3-10mer-K4Me2, H2N-ARTK(Me2)QTARKS-NH2, reference compound], for which the inhibition constant (Ki) is 9 ± 1.3 µM.
For `CC(C)C[C@H](NC(=O)[C@H](Cc1c[nH]cn1)NC(=O)[C@@H](NC(=O)[C@H](CCC(=O)O)NC(=O)[C@H](C)NC(=O)[C@H](CCCNC(=N)N)NC(=O)[C@H](C)NC(=O)[C@@H](N)CO)C(C)C)C(=O)N[C@@H](CCCNC(=N)N)C(=O)N[C@@H](CCCCN)C(=O)N[C@@H](CO)C(N)=O` [Compound H2N-11mer], the inhibition constant (Ki) was 0.02 ± 0.002 µM.

The assay is the same for the next values; noted with them: 4 nM WDR5Δ23, 0.6 nM 10mer-Thr-FAM tracer; read-out: IC50 ± SD.
As for `CC(C)C[C@H](NC(=O)[C@H](Cc1c[nH]cn1)NC(=O)[C@@H](NC(=O)[C@H](CCC(=O)O)NC(=O)[C@H](C)NC(=O)[C@H](CCCNC(=N)N)NC(=O)[C@H](C)NC(=O)[C@@H](N)CO)C(C)C)C(=O)N[C@@H](CCCNC(=N)N)C(=O)N[C@@H](CCCCN)C(=O)N[C@@H](CO)C(N)=O` [Compound H2N-11mer], the IC50 came out at 0.08 ± 0.01 µM.
Take `CNCCCC[C@H](NC(=O)[C@@H](NC(=O)[C@H](CCCNC(=N)N)NC(=O)[C@H](C)N)[C@@H](C)O)C(=O)N[C@@H](CCC(N)=O)C(=O)N[C@H](C(=O)N[C@@H](C)C(=O)N[C@@H](CCCNC(=N)N)C(=O)N[C@@H](CCCCN)C(=O)N[C@@H](CO)C(N)=O)[C@@H](C)O` [H3-10mer-K4Me, H2N-ARTK(Me)QTARKS-NH2, reference compound]: the IC50 is 69 ± 7 µM.

Still in this assay, the particulars now being: Table 5 peptidomimetics.
On to `CC(=O)NCC(=O)N[C@@H](CCCNC(=N)N)C(=O)N[C@@H](C)C(N)=O` [Compound 1A], for which the IC50 is above 10 µM.

Still in this assay, the particulars now being: read-out: Binding Affinity to WDR5 (IC50 ± SD); Table 5 peptidomimetics.
On to `CC(=O)N[C@@H](Cc1c[nH]cn1)C(=O)N[C@@H](CCCNC(=N)N)C(=O)N[C@@H](C)C(N)=O` [Compound 1G], for which the 50% inhibitory concentration (IC50) was below 10 µM.
As for `CC(=O)N[C@@H](CO)C(=O)N[C@@H](CCCNC(=N)N)C(=O)N[C@@H](C)C(N)=O` [Compound 1I], the IC50 was below 30 µM.
In the case of `CC(=O)N[C@H](C(=O)N[C@@H](CCCNC(=N)N)C(=O)N[C@H](C(N)=O)C(C)C)C(C)(C)C` [Compound 4G], the IC50 was below 5 µM.
`CCC[C@H](NC(C)=O)C(=O)N[C@@H](CCCNC(=N)N)C(=O)N[C@H](C(N)=O)C(C)C` [Compound 4H]: the 50% inhibitory concentration (IC50) was below 1 µM.
In the case of `CC(=O)N[C@@H](C)C(=O)N[C@@H](CCCNC(N)=O)C(=O)N[C@@H](C)C(N)=O` [Compound 2D], the IC50 was above 1 µM.
Take `CC(=O)N[C@@H](C)C(=O)N[C@@H](CCCNC(=N)N)C(=O)N[C@@H](CC(C)C)C(N)=O` [Compound 3E]: the IC50 is above 10 µM.
Regarding `CC(=O)N[C@H](C(=O)N[C@@H](CCCNC(=N)N)C(=O)N[C@H](C(N)=O)C1CCCC1)C(C)C` [Compound 5G], the 50% inhibitory concentration (IC50) is above 10 µM.
On to `CC(=O)N[C@@H](C(=O)N[C@@H](CCCNC(=N)N)C(=O)N[C@H](C(N)=O)C(C)C)c1ccccc1` [Compound 4K], for which the concentration for half-maximal inhibition (IC50) is above 10 µM.
For the compound `CC(=O)N[C@@H](C)C(=O)N[C@@H](CCCNC(=N)N)C(=O)N[C@@H](Cc1ccccc1)C(N)=O` [Compound 3G], the IC50 is above 10 µM.
Same read-out and setting: with `CC(=O)N[C@@H](C)C(=O)N[C@@H](CCCNC(=N)N)C(=O)N[C@H](C(N)=O)C1CCCCC1` [Compound 3F] the figure was above 10 µM.
With `CC(=O)N[C@@H](C)C(=O)N[C@@H](CCCNC(=N)N)C(=O)N[C@@H](CO)C(N)=O` [Compound 3H], the IC50 is below 5 µM.
For the compound `CC(=O)N[C@@H](C)C(=O)N[C@@H](CCCNC(=N)N)C(=O)N[C@H](C(N)=O)C(C)C` [Compound 3C], the half-maximal inhibitory concentration (IC50) is below 1 µM.
On to `CC(=O)N[C@@H](CC(C)C)C(=O)N[C@@H](CCCNC(=N)N)C(=O)N[C@@H](C)C(N)=O` [Compound 1E], for which the half-maximal inhibitory concentration (IC50) is below 50 µM.
Turning to `CC[C@H](NC(C)=O)C(=O)N[C@@H](CCCNC(=N)N)C(=O)N[C@@H](C)C(N)=O` [Compound 1B], the IC50 is below 1 µM.
Take `CC(=O)N[C@H](C(=O)N[C@@H](CCCNC(=N)N)C(=O)N[C@H](C(N)=O)C(C)C)c1ccccc1` [Compound 4J]: the IC50 was below 30 µM.
Take `CCC(CC)(NC(C)=O)C(=O)N[C@@H](CCCNC(=N)N)C(=O)N[C@H](C(N)=O)C(C)C` [Compound 4F]: the IC50 is below 1 µM.
Consider `CC(=O)N[C@@H](C)C(=O)N[C@@H](CCCNC(=N)N)C(=O)N[C@@H](CCC(=O)O)C(N)=O` [Compound 3J], for which the IC50 is above 10 µM.
For the compound `CC(=O)N[C@@H](CS)C(=O)N[C@@H](CCCNC(=N)N)C(=O)N[C@@H](C)C(N)=O` [Compound 1D], the half-inhibitory concentration (IC50) is below 5 µM.
Regarding `CC(=O)NC(C)(C)C(=O)N[C@@H](CCCNC(=N)N)C(=O)N[C@H](C(N)=O)C(C)C` [Compound 4E], the 50% inhibitory concentration (IC50) was below 1 µM.
As to `CC[C@H](NC(=O)[C@H](CCCNC(=N)N)NC(=O)[C@H](C)NC(C)=O)C(N)=O` [Compound 3B], the IC50 is below 0.1 µM.
As for `CC(=O)N[C@@H](C)C(=O)N[C@@H](CCCNC(=N)N)C(=O)N[C@@H](CS)C(N)=O` [Compound 3D], the IC50 is below 1 µM.
The same measure, in the same setting: with `CC(=O)N[C@H](C(=O)N[C@@H](CCCNC(=N)N)C(=O)N[C@H](C(N)=O)C(C)C)C1CCCC1` [Compound 4I] the figure was below 10 µM; with `CC(=O)N[C@H](C(=O)N[C@@H](CCCNC(=N)N)C(=O)NC(C)(C)C(N)=O)C(C)C` [Compound 5E], above 1 µM; with `CC(=O)N[C@H](C(=O)N[C@@H](CCCNC(=N)N)C(=O)N[C@@H](C)C(N)=O)[C@@H](C)O` [Compound 1J], below 30 µM.
Still for that read-out and setting: with `CC(=O)N[C@@H](C)C(=O)N[C@@H](CCCNC(=N)N)C(=O)NCC(N)=O` [Compound 3A] the figure was above 1 µM; with `CC(=O)N[C@H](C(=O)N[C@@H](CCCNC(=N)N)C(=O)N[C@@H](C)C(N)=O)C1CCCCC1` [Compound 1F], below 50 µM; with `CC(=O)N[C@H](C(=O)N[C@@H](CCCNC(=N)N)C(=O)N[C@@H](C)C(N)=O)C(C)C` [Compound 1C], below 1 µM.
On to `CC(=O)N[C@H](C(=O)N[C@@H](CCCNC(=N)N)C(=O)N[C@H](C(N)=O)C(C)(C)C)C(C)C` [Compound 5F], for which the half-inhibitory concentration (IC50) was above 10 µM.
Take `CC(=O)N[C@@H](Cc1ccccc1)C(=O)N[C@@H](CCCNC(=N)N)C(=O)N[C@@H](C)C(N)=O` [Compound 1H]: the half-inhibitory concentration (IC50) is below 50 µM.

A further assay deals with MLL1 core complex (MLL1, WDR5, RbBP5, Ash2L) (Homo sapiens (Human), UniProt P61964). The assay is described as follows: Inhibition of histone methyltransferase activity of the MLL1 core complex. It counts as biochemical. To be noted: 0.5 μM MLL complex, 50 μM H3 peptide substrate, 30 minutes.
In turn, `CC(=O)NCC(=O)N[C@@H](CCCNC(=N)N)C(=O)N[C@@H](C)C(N)=O` [GRA] came in with an IC50 above 100 µM.
